The text below walks through data of paper PMC10177692, “Novel topoisomerase II/EGFR dual inhibitors: design, synthesis and docking studies of naphtho[2′,3′:4,5]thiazolo[3,2-a]pyrimidine hybrids as potential anticancer agents with apoptosis inducing activity” (Journal of Enzyme Inhibition and Medicinal Chemistry, 2023).

Amino acid sequences for entries named in this document (tags omitted). A change or cut given only in a name is not applied to a line headed by its entry.
UniProt P11388: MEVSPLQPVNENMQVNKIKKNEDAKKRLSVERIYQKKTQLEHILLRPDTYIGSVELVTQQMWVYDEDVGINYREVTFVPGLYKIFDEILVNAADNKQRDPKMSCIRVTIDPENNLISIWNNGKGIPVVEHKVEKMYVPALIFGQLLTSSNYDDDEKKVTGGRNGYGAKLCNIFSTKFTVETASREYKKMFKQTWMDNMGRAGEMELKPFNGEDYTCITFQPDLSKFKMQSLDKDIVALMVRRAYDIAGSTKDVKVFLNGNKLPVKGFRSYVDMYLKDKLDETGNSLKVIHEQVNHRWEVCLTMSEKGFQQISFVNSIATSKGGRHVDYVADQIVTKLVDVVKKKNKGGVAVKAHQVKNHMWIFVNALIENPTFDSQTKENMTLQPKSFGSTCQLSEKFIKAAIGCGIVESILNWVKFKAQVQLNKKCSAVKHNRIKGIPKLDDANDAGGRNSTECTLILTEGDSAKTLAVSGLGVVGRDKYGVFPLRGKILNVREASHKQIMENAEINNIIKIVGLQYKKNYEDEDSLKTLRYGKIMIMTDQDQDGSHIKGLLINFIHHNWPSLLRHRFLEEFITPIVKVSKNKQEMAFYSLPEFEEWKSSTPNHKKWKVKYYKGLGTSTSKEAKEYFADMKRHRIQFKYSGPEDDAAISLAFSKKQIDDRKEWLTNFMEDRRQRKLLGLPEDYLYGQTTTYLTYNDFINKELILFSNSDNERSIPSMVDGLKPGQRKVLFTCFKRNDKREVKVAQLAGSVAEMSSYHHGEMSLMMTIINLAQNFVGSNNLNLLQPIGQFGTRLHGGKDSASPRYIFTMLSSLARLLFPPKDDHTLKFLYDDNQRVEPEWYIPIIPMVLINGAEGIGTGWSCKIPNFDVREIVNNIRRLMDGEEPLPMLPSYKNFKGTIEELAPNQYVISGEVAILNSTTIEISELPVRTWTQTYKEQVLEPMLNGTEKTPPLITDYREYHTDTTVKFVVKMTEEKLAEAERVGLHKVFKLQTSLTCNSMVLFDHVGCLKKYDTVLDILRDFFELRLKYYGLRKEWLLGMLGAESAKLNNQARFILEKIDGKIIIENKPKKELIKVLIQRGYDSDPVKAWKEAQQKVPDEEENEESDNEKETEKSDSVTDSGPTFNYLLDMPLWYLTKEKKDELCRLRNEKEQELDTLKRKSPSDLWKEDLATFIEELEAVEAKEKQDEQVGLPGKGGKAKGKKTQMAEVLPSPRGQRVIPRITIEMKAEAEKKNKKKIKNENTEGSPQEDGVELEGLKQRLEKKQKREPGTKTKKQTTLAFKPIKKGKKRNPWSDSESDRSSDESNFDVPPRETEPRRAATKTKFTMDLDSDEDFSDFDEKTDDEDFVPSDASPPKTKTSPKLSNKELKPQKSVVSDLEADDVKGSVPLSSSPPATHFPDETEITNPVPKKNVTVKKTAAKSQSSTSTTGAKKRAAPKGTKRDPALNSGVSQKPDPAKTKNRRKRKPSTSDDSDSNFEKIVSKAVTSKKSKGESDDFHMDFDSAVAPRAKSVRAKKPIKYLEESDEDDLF

For the assay, the target named is T1, topoisomerase II (Homo sapiens, UniProt P11388).
T1 construct: purchased Topogen, USA
Kind of assay: DNA topo II inhibition assay (kDNA, agarose gel). The note with it: 10 µM, with topo II. It counts as biochemical. On the procedure:
Using the procedure outlined in topoisomerase II Drug Screening Kit (Topogen, USA), the effect of 6a, 6c and 6i on topoisomerase II inhibition and the effectiveness of catenated/decatenated kDNA formation were examined. The reaction mixture includes 10 mM MgCl2, 50 mM Tris-HCl, 0.5 mM dithiothreitol, […]/ml bovine serum albumin, 200–300 ng of kDNA and topoisomerase II. Test compounds were added to reaction mixture and etoposide used as reference standard. After the reaction samples were incubated for 30 min at 37 °C, the reaction was stopped by adding […] of a stop buffer containing 10% (w/v) SDS and […] of 0.5 mg/ml proteinase followed by incubating the mixture for 10 min at 37 °C. The reaction mixture was separated by 1% agarose gel and examined after being stained with ethidium bromide.

For the molecule `COc1cc([C@@H]2c3cc4c(cc3[C@@H](O[C@@H]3O[C@@H]5CO[C@@H](C)O[C@H]5[C@H](O)[C@H]3O)[C@H]3COC(=O)[C@H]23)OCO4)cc(OC)c1O` [etoposide, reference compound], the “linear DNA formation from catenated kDNA” value is “a linear DNA formation was seen”.
